According to article PMC3210067 (Nature chemical biology, 2011):
Non-standard residues stand in square brackets, D forms with d. Residues, ends and D or L forms follow the SMILES beside them. NMeY = CN[C@@H](Cc1ccc(O)cc1)C(=O)O; NMeL = CN[C@@H](CC(C)C)C(=O)O; dNMeL = CN[C@H](CC(C)C)C(=O)O

How the values were obtained:
[1] = human liver microsomal stability; assay type: in vitro ADME; conditions: liver microsomes, pH 7.4
[2] = rat liver microsomal stability; assay type: in vitro ADME; conditions: liver microsomes, pH 7.4
human plasma stability = assay type: in vitro ADME; conditions: pH 7.4
[3] = parallel artificial membrane permeability assay; conditions: Figure 4a, values not given

With CC(C)C[C@@H]1NC(=O)[C@H](CC(C)C)N(C)C(=O)[C@@H](CC(C)C)N(C)C(=O)[C@H](CO)NC(=O)[C@H](Cc2ccc(O)cc2)N(C)C(=O)[C@H]2CCCN2C1=O [3 L^1S] (cyclo(L[dP][NMeY]S[dNMeL][NMeL])) the “drop in RRCK cell permeability relative to 3” value (RRCK cells; single Leu-to-Ser substitution in 3, listed as Leu^4-to-Ser) was 85%.

Compound CC(C)C[C@@H]1NC(=O)[C@H](Cc2ccc(O)cc2)NC(=O)[C@H]2CCCN2C(=O)[C@H](CC(C)C)NC(=O)[C@H](CC(C)C)NC(=O)[C@@H](CC(C)C)NC1=O [compound 1, cyclo[Leu, D-Leu, Leu, Leu, D-Pro, Tyr]] has a microsomal CLint at 1 µM [1] of 225 µL/min/mg, a microsomal CLint at 1 µM [2] of 243 µL/min/mg and a half-life at 1 µM (human plasma stability) greater than 360 min.

CC(C)C[C@@H]1NC(=O)[C@H](CC(C)C)NC(=O)[C@@H](CC(C)C)NC(=O)[C@H](Cc2ccc(O)cc2)NC(=O)[C@H]2CCCN2C(=O)[C@H](CC(C)C)NC1=O [compound 2] gave a microsomal CLint at 1 µM [1] of 109 µL/min/mg, a microsomal CLint at 1 µM [2] of 47.1 µL/min/mg and a half-life at 1 µM (human plasma stability) greater than 360 min.

Compound CC(C)C[C@@H]1NC(=O)[C@H](Cc2ccc(O)cc2)N(C)C(=O)[C@H]2CCCN2C(=O)[C@H](CC(C)C)NC(=O)[C@H](CC(C)C)N(C)C(=O)[C@@H](CC(C)C)N(C)C1=O [compound 3] has a microsomal CLint at 1 µM [1] of 110 µL/min/mg and a microsomal CLint at 1 µM [2] of 30.4 µL/min/mg.

For CC(C)C[C@@H]1NC(=O)[C@H](CC(C)C)N(C)C(=O)[C@@H](CC(C)C)N(C)C(=O)[C@H](Cc2ccc(O)cc2)N(C)C(=O)[C@H]2CCCN2C(=O)[C@H](CC(C)C)N(C)C1=O [compound 4] (cyclo(L[NMeL][dP][NMeY][dNMeL][NMeL])), the “fold more permeable than corresponding non-methylated precursor (RRCK)” value (RRCK cells; RRCK cells, relative to 1 or 2) was 3 to 10 fold and the “PAMPA permeability (in words)” value [3] was “comparable to that of the orally bioavailable drug propranolol”.

For CC(C)C[C@@H]1C(=O)N(C)[C@@H](CC(C)C)C(=O)N(C)[C@@H](CC(C)C)C(=O)N2CCC[C@@H]2C(=O)N(C)[C@@H](Cc2ccc(O)cc2)C(=O)N(C)[C@@H](CC(C)C)C(=O)N1C [compound 5], the “PAMPA permeability (in words)” value [3] was “as low as those of the nonmethylated precursors”.

In the case of CC(C)C[C@@H]1C(=O)N(C)[C@@H](CC(C)C)C(=O)N(C)[C@@H](CC(C)C)C(=O)N(C)[C@@H](CC(C)C)C(=O)N2CCC[C@@H]2C(=O)N(C)[C@@H](Cc2ccc(O)cc2)C(=O)N1C [compound 6], the “PAMPA permeability (in words)” value [3] is reported as “as low as those of the nonmethylated precursors”.
